This is an account of results in PubChem BioAssay AID1259370 (Center for Chemical Genomics, University of Michigan, 2018).

This is a selection; strong and weak results do not stand in their true shares. Calls of active or inactive are those of the source. No stated cut-off is given here; in the data, active means z-score above about 3.2; inactive means the rest.

This assay deals with M-phase inducer phosphatase 2 (Homo sapiens) + Cyclin-dependent kinase 2 (Homo sapiens) + Cyclin-A2 (Homo sapiens) (UniProt P30305+P24941+P20248). Put plainly: primary biochemical HTRF screen for blockers of M-phase inducer phosphatase 2 binding to CDK2/cyclin A (AID 1259370). As to conditions: HTRF CDC25B-CDK2/CyclinA binding, anti-His/anti-Flag; hits give high values.
On to `Cc1ccccc1NC1CC(C)(C)NC(C)(C)C1`, for which the z-score is inactive: -2.47.
